The target of this assay is Vascular endothelial growth factor receptor 2 (Homo sapiens, UniProt P35968). Put plainly: Inhibitory activity towards vascular endothelial growth factor receptor 2.

By UniProt entry, the sequences of proteins in these tests, tags left out.
UniProt P35968, whole entry: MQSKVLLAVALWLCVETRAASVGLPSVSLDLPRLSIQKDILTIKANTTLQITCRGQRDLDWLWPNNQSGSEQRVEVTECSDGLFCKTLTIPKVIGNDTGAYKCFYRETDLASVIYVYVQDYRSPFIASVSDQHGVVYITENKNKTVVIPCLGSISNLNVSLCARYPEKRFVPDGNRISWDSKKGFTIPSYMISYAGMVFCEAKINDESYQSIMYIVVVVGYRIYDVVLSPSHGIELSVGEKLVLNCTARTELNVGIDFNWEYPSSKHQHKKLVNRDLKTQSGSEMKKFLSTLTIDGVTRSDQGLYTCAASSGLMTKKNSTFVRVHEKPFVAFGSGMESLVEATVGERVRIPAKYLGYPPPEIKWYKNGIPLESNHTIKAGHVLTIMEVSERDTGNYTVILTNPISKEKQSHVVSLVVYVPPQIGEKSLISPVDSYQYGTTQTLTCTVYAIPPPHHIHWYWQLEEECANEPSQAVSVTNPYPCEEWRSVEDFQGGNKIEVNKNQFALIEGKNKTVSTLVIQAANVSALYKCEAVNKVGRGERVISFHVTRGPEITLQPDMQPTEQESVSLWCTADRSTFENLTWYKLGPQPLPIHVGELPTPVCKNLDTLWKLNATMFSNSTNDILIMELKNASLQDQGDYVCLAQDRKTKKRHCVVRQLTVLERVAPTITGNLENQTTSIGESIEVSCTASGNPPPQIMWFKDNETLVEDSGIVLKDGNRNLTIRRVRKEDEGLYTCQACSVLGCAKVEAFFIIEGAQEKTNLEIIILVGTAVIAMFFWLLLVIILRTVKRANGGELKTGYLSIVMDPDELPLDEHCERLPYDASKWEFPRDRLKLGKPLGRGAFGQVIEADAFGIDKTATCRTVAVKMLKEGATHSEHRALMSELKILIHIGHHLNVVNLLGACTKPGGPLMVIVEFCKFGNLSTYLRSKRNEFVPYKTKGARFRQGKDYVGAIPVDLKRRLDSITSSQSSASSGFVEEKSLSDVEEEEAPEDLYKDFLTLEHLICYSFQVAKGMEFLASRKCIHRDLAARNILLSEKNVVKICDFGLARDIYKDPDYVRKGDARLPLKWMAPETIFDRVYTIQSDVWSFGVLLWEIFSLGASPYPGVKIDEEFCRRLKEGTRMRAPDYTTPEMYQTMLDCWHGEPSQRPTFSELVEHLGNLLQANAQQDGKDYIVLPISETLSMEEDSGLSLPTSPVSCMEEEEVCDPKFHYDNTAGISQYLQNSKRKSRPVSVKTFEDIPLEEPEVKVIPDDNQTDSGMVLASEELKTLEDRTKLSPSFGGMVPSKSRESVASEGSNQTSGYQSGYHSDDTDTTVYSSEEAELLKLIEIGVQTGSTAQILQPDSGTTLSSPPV

Usually IC50 stands for the concentration that inhibits the measured activity by half. With `c1ccc(Nc2ncc(-c3ccccc3)o2)cc1` [GW549390X], the IC50 is 134 nM.

These data come from ChEMBL document CHEMBL1146769, “The discovery of N-(1,3-thiazol-2-yl)pyridin-2-amines as potent inhibitors of KDR kinase” (Bioorg Med Chem Lett, 2004).
